Experimental data taken from patent publication US4154967A, “Process for preparation of phenols” (Mitsui Petrochemical Industries, Ltd., priority 1976, dated 1979).

Conditions: 25° C., 96% ethanol made up with carbonate-free water; 0.01 to 0.05 M; about 20, 40 or 60% neutralized

O=[N+]([O-])c1cc([N+](=O)[O-])c(S)c([N+](=O)[O-])c1 showed an acid dissociation constant (pKa) of 3.2.

This is a selection: effects in other tests are not listed, and their absence says nothing.
